# Source: paper PMC5887109, “Unravelling the Molecular Determinants of Bee Sensitivity to Neonicotinoid Insecticides” (Current Biology, 2018)
# Chains of the proteins cited; added tags and fusions are not shown.
# UniProt A0A7M7GTV9, entry or part of it: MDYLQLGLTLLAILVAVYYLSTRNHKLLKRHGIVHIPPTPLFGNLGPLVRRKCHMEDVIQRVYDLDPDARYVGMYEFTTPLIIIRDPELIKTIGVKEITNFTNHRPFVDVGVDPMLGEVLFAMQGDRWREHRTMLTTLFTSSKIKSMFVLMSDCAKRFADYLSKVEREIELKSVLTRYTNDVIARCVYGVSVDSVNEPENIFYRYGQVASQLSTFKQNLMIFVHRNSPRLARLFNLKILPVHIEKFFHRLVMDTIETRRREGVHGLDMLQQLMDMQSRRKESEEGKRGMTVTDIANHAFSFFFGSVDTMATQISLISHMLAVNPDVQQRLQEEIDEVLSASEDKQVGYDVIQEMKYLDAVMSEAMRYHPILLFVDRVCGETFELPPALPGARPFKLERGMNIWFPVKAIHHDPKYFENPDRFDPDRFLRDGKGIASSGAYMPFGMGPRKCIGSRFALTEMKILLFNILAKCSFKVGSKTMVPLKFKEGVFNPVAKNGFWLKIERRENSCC
# Experiments:
# [1] = test system: transgenic Drosophila expressing CYP9Q3 in Malpighian tubules and neuronal cells; details: Malp-GAL4 driver
# Experimental: (§1) Fly lines were made homozygous for the transgene integrations. […] LC50 values were calculated as above.
# [2] = test system: transgenic Drosophila expressing honeybee CYP9Q3; test: Insecticide bioassay of transgenic Drosophila expressing CYP9Q3; format: in vivo, Drosophila melanogaster; details: Act5C-GAL4 driven; ratio of LC50 values
# Experimental: as §1
# [3] = test system: Bombus terrestris; test: Acute oral insecticide bioassay of bumble bees, with or without PBO; details: PBO versus no synergist
# Experimental: (§2) Acute contact insecticide assays were performed on female A. mellifera following standard methods OECD 2013 [30]. Bioassays of B. terrestris were based on the OECD guidelines developed for honeybees but with bees assayed in individual Nicot cages. Bees were starved of sucrose solution for up to 2 hr to encourage feeding during the experiment. […] Controls were fed a solution of sucrose containing a concentration of acetone matching that of the highest treatment concentration. After 4-6 hr the syringes were assessed to see if bees had consumed the insecticide-sucrose solution. Those that had not consumed all of the solution were excluded from the experiment. Mortality was assessed 48 hr after feeding and lethal concentrations (LC50 values) were calculated by probit analysis using Genstat version 16 (VSN International). For synergist bioassays, B. terrestris or A. mellifera workers were first treated with 20 μg of piperonyl butoxide or 1 μg of aminobenzotriazole applied to the dorsal thorax. Synergist bioassays included an additional control group treated only with the synergist. 1 hr after synergist application, bees were then treated with the appropriate insecticide dosage as above.
# [4] = test system: A. mellifera; test: Acute contact (topical) insecticide bioassay of honeybees, with or without ABT; details: honeybees pretreated with ABT (1-aminobenzotriazole)
# Experimental: as §2
# [5] = test system: CYP6AS5; test: Metabolism by recombinant CYP6AS5/CPR microsomes, LC-MS/MS; details: at least
# From the text: (§3) All bee P450 (see Table S3 for accession numbers) and house fly NADPH-dependent cytochrome P450 reductase (CPR) (GenBank accession number Q07994) genes were obtained by gene synthesis (Geneart, CA, USA) and inserted into the pDEST8 expression vector (Invitrogen). Codon optimization of all bee genes was used to optimize expression in lepidopteran cell lines. The PFastbac1 vector with no inserted DNA was used to produce a control virus. The recombinant baculovirus DNA was constructed and transfected into Trichoplusia ni (High five cells, Thermo Fisher) using the Bac-to-Bac baculovirus expression system (Invitrogen) according to the manufacturer’s instructions. The titer of the recombinant virus was determined following protocols of the supplier. High Five cells grown to a density of 2 × 10^6 cells ml^-1 were co-infected with recombinant baculoviruses containing each bee P450 and CPR with a range of MOI (multiplicity of infection) ratios to identify the optimal conditions. […] The protein content of samples was determined using Bradford reagent (Sigma) and bovine serum albumin (BSA) as a reference.
# (§4) The total assay volume was 200 μL using three replicates for each data point. […] The assay was stopped by the addition of ice-cold acetonitrile (to 80% final concentration), centrifuged for 10 min at 3000 g and the supernatant subsequently analyzed by tandem mass spectrometry as described previously. […]
# [6] = test system: transgenic Drosophila expressing honeybee CYP9Q2; test: Insecticide bioassay of transgenic Drosophila expressing CYP9Q2; format: in vivo, Drosophila melanogaster; details: Act5C-GAL4 driven; ratio of LC50 values
# Experimental: as §1
# [7] = test system: transgenic Drosophila expressing B. terrestris CYP9Q5; test: Insecticide bioassay of transgenic Drosophila expressing CYP9Q5; format: in vivo, Drosophila melanogaster; details: Act5C-GAL4 driven; ratio of LC50 values
# Experimental: as §1
# [8] = test system: transgenic Drosophila expressing B. terrestris CYP9Q4; test: Insecticide bioassay of transgenic Drosophila expressing CYP9Q4; format: in vivo, Drosophila melanogaster; details: Act5C-GAL4 driven; ratio of LC50 values
# Experimental: as §1
# [9] = test system: transgenic Drosophila expressing honeybee CYP9Q1; test: Insecticide bioassay of transgenic Drosophila expressing CYP9Q1; format: in vivo, Drosophila melanogaster; details: Act5C-GAL4 driven; ratio of LC50 values
# Experimental: as §1
# [10] = target: CYP9Q1 (Apis mellifera, UniProt A0A7M7GTV9); details: at least
# From the text: as §3, §4
# [11] = target: T1, CYP9Q2 (Apis mellifera, UniProt A0A7M7R6F2); details: at least
# T1 sequence (A0A7M7R6F2 1-532): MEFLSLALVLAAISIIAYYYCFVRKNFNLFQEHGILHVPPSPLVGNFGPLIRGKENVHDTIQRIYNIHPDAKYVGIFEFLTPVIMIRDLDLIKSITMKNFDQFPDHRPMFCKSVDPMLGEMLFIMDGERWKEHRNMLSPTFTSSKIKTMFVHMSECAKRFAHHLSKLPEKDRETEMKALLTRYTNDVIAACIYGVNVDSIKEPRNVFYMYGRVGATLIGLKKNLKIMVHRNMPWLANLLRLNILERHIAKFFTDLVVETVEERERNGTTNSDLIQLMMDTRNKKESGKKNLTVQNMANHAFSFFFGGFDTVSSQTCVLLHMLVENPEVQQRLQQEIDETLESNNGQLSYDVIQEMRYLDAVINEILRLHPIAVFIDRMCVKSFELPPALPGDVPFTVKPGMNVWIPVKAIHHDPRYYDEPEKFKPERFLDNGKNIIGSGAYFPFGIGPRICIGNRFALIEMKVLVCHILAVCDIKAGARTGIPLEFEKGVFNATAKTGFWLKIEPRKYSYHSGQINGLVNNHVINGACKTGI
# T1 sequence (Q07994 1-671 partner): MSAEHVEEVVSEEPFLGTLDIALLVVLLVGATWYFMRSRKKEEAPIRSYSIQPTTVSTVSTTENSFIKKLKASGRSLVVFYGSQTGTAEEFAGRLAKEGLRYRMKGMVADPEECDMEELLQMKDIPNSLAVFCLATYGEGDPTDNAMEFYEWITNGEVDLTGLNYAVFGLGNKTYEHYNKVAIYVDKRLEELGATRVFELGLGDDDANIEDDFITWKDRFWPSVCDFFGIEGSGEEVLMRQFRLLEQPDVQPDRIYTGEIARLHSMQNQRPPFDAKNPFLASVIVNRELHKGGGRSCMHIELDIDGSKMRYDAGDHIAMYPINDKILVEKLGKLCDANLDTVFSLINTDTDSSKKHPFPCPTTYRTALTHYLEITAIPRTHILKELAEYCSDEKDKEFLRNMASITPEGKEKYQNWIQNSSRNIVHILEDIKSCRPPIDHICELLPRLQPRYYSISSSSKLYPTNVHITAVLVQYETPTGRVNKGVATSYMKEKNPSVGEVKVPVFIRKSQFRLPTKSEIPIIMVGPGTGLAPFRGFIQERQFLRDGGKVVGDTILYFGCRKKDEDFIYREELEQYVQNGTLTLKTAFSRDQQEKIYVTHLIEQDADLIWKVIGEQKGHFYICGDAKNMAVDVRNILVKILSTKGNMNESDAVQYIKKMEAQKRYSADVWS
# From the text: as §3, §4
smiles,measurement,setting,value
N#C/N=C1\SCCN1Cc1ccc(Cl)nc1 [thiacloprid],resistance of flies with CYP9Q3 expression directed to Malpighian tubules and neuronal cells,[1],Significant levels of thiacloprid resistance
same,resistance compared to control flies without the transgene,[2],> 10 fold
same,Synergism Ratio,[3],4.2
same,fold more sensitive after pretreatment with ABT,[4],> 170 fold
same,"activity against thiacloprid, fold lower than that seen for CYP9Q3",[5],> 10 fold
same,resistance compared to control flies without the transgene,[6],3.5 fold
same,resistance compared to control flies without the transgene,[7],no change in sensitivity
same,resistance compared to control flies without the transgene,[8],~5 fold
same,resistance compared to control flies without the transgene,[9],no change in sensitivity
same,"activity against thiacloprid, fold lower than that seen for CYP9Q3",[10],> 10 fold
same,"activity against thiacloprid, fold lower than that seen for CYP9Q3",[11],> 10 fold
